Here are results for five compounds from patent US8163756B2 (priority 2004, dated 2012).

Protein sequences, listed by entry. Tags and fused reporters are not part of them. Chains listed by the source or under a name are the forms on record and can include a tag or linker. Residues count along the entry.
UniProt P00519, 229-512: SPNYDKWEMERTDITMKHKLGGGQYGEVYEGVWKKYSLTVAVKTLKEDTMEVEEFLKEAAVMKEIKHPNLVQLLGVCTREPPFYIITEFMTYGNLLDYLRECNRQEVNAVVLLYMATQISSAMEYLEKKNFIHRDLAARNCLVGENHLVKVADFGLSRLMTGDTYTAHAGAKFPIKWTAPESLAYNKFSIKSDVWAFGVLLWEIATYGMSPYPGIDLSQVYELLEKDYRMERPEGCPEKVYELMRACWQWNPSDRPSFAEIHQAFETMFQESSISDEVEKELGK
UniProt P15056, 423-766 with tags or gaps V600E limits assumed: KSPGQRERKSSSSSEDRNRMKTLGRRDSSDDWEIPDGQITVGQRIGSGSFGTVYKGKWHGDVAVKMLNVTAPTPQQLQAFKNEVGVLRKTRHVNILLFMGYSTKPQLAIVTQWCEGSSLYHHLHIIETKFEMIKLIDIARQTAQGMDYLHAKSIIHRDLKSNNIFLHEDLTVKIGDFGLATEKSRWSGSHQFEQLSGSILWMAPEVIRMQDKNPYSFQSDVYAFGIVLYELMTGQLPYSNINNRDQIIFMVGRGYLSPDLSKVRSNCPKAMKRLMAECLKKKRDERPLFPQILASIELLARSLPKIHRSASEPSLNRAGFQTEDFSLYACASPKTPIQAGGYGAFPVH
UniProt P15056, 433-726 V600E limits assumed: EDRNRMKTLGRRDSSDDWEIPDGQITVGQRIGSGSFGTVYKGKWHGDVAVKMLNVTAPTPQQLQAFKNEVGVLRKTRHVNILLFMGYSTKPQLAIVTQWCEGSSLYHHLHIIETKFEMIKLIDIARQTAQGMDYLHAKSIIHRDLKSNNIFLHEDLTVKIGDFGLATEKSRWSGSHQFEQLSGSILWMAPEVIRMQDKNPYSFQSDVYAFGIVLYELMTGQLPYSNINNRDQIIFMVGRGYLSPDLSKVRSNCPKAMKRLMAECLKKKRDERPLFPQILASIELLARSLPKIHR

The target in assay [1] is T1, Abl kinase (Homo sapiens, UniProt P00519). In words: Abl kinase assay A2 (as A1, 1.1 nM enzyme, 2 h pre-incubation, 0.5 mM ATP). The format is biochemical. As to conditions: read-out: Abl Data (IC50), Method A2.
In assay [2] the target is T2, B-Raf(V599E) kinase (Homo sapiens, UniProt P15056, V600E). In words: B-Raf(V599E) kinase assay B2 (construct 2 at 2 nM, 1 h pre-incubation). As to conditions: read-out: B-Raf Data; Method B2.
The target of assay [3] is T1, Abl kinase. In words: Abl kinase assay A1 (pyruvate kinase/lactate dehydrogenase coupled, spectrophotometric). The settings on record: read-out: Abl Data (IC50); Method A1.
For assay [4], the target named is T2, B-Raf(V599E) kinase. In words: B-Raf(V599E) kinase assay B1 (construct 1, MEK1 substrate, coupled spectrophotometric). As to conditions: read-out: B-Raf Data, Method B1.

As for `Cn1c(=O)c(-c2cccc(NC(=O)Nc3cc(C(C)(C)C)nn3-c3ccc4nc(N5CCNCC5)ccc4c3)c2)cc2cncnc21`, the IC50 came to 21 nM at Abl kinase [1] and 194 nM at B-Raf(V599E) kinase [2].

As to `CC(O)c1cc(-n2nc(C(C)(C)C)cc2NC(=O)Nc2cccc(Cl)c2Cl)cc2ccccc12` (stereo not drawn), the IC50 at Abl kinase [3] was determined as 360 nM; at B-Raf(V599E) kinase [4] it was 7.1 nM.

As to `Cn1c(=O)c(-c2cccc(NC(=O)Nc3cc(C(C)(C)C)nn3-c3ccc4c(c3)CCN4)c2)cc2cncnc21`, the IC50 at Abl kinase [1] was 31 nM; on B-Raf(V599E) kinase [2] it was 29 nM.

Consider `CC(C)(C)c1cc(NC(=O)Nc2cccc(Cl)c2Cl)n(-c2ccc3c(c2)C(=NO)CC3)n1`, for which the IC50 on B-Raf(V599E) kinase [4] came out at 3.6 nM.

In the case of `Cn1c(=O)c(-c2cccc(NC(=O)Nc3cc(C(C)(C)C)nn3-c3ccc4[nH]c(=O)ccc4c3)c2)cc2cncnc21`, the IC50 at Abl kinase [1] (tested form: HCl) stood at 18 nM; on B-Raf(V599E) kinase [4] (tested form: HCl), 8.4 nM.
